# Permeability data for macrocyclic peptides

PAMPA is the parallel artificial membrane permeability assay, which has no cells and reads passive diffusion. Values are log10 P with P in cm/s, so -5 is more permeable than -7.

- CC(C)C[C@H]1NC(=O)[C@H](CC(C)C)N(C)C(=O)[C@@H](C)N(C)C(=O)[C@H]2CCCN2C(=O)[C@H](Cc2ccccc2)NC(=O)CN(Cc2ccccc2)C(=O)[C@H]2CCCN2C1=O: PAMPA -6.03 (log10 cm/s)
- CC(C)C[C@H]1C(=O)N(Cc2ccccc2)CC(=O)N2CCC[C@H]2C(=O)N(C)[C@@H](CC(C)C)C(=O)N[C@@H](Cc2ccccc2)C(=O)N2CCC[C@H]2C(=O)N(C)[C@H](C)C(=O)N1C: PAMPA -5.22 (log10 cm/s)
- CC(C)C[C@H]1C(=O)N(Cc2ccccc2)CC(=O)N2CCC[C@H]2C(=O)N(C)[C@@H](CC(C)C)C(=O)N[C@@H](Cc2ccccc2)C(=O)N2CCC[C@H]2C(=O)N[C@@H](C)C(=O)N1C: PAMPA -5.68 (log10 cm/s)
- CC(C)C[C@@H]1NC(=O)[C@@H]2CCCN2C(=O)[C@H](CC(C)C)NC(=O)[C@@H](CC(C)C)N(C)C(=O)C[C@H](Cc2ccccc2)NC(=O)[C@@H]2CCCN2C(=O)[C@H](Cc2ccccc2)NC1=O: PAMPA -5.80 (log10 cm/s)
- CC(C)C[C@@H]1NC(=O)[C@H](C)N(C)C(=O)[C@H](Cc2ccccc2)NC(=O)[C@@H](CC(C)C)NC(=O)[C@@H]2CCCN2C(=O)CN(Cc2ccccc2)C1=O: PAMPA -5.83 (log10 cm/s)
- CC(C)C[C@H]1NC(=O)[C@@H]2CCCN2C(=O)[C@@H](CC(C)C)NC(=O)CN(Cc2ccccc2)C(=O)C[C@H](Cc2ccccc2)NC(=O)[C@H]2CCCN2C(=O)[C@H](Cc2ccccc2)NC1=O: PAMPA -5.75 (log10 cm/s)
- CC(C)C[C@@H]1NC(=O)[C@@H](CC(C)C)NC(=O)C[C@H](Cc2ccccc2)NC(=O)[C@@H]2CCCN2C(=O)[C@H](Cc2ccccc2)NC(=O)[C@@H](CC(C)C)N(C)C(=O)[C@H]2CCCN2C1=O: PAMPA -5.43 (log10 cm/s)
- CC(C)C[C@@H]1C(=O)N2CCC[C@@H]2C(=O)N(Cc2ccccc2)CC(=O)N[C@@H](Cc2ccccc2)C(=O)N2CCC[C@@H]2C(=O)N[C@H](C)C(=O)N[C@H](CC(C)C)C(=O)N1C: PAMPA -6.28 (log10 cm/s)
- CC(C)C[C@@H]1NC(=O)[C@@H](C)N(C)C(=O)[C@H](Cc2ccccc2)NC(=O)[C@H](CC(C)C)NC(=O)[C@H]2CCCN2C(=O)[C@H](CC(C)C)NC1=O: PAMPA -7.20 (log10 cm/s)
- CC(C)C[C@H]1NC(=O)[C@@H]2CCCN2C(=O)[C@@H](CC(C)C)NC(=O)CN(Cc2ccccc2)C(=O)C[C@H](Cc2ccccc2)NC(=O)[C@@H]2CCCN2C(=O)[C@H](Cc2ccccc2)NC1=O: PAMPA -5.82 (log10 cm/s)
- CC(C)C[C@@H]1C(=O)N2CCC[C@@H]2C(=O)N(Cc2ccccc2)CC(=O)N[C@@H](Cc2ccccc2)C(=O)N[C@@H](C)C(=O)N[C@H](CC(C)C)C(=O)N1C: PAMPA -6.23 (log10 cm/s)
- CC(C)C[C@@H]1C(=O)N(C)[C@@H](CC(C)C)C(=O)N2CCC[C@@H]2C(=O)N[C@H](CC(C)C)C(=O)N[C@@H](Cc2ccccc2)C(=O)N[C@@H](C)C(=O)N1C: PAMPA -5.70 (log10 cm/s)
- CC(C)C[C@@H]1C(=O)N[C@@H](Cc2ccccc2)C(=O)N[C@H](C)C(=O)N(C)[C@@H](CC(C)C)C(=O)N(C)[C@@H](CC(C)C)C(=O)N2CCC[C@@H]2C(=O)N1C: PAMPA -5.01 (log10 cm/s)
- CC(C)C[C@@H]1C(=O)N[C@@H](Cc2ccccc2)CC(=O)N2CCC[C@@H]2C(=O)N(C)[C@H](CC(C)C)C(=O)N[C@@H](Cc2ccccc2)C(=O)N2CCC[C@H]2C(=O)N[C@@H](C)C(=O)N1C: PAMPA -4.96 (log10 cm/s)
- CC(C)C[C@@H]1C(=O)N(C)[C@@H](CC(C)C)C(=O)N2CCC[C@H]2C(=O)N(C)[C@H](CC(C)C)C(=O)N[C@@H](Cc2ccccc2)C(=O)N[C@@H](Cc2ccccc2)CC(=O)N1C: PAMPA -5.25 (log10 cm/s)
- CC(C)C[C@@H]1C(=O)N2CCC[C@@H]2C(=O)N(C)[C@H](CC(C)C)C(=O)N[C@@H](Cc2ccccc2)C(=O)N2CCC[C@@H]2C(=O)N(C)[C@@H](C)C(=O)N(C)[C@H](CC(C)C)C(=O)N1C: PAMPA -6.03 (log10 cm/s)
- CC(C)C[C@@H]1NC(=O)[C@@H]2CCCN2C(=O)[C@@H](CC(C)C)N(C)C(=O)[C@H](CC(C)C)NC(=O)C[C@H](Cc2ccccc2)NC(=O)[C@@H]2CCCN2C(=O)[C@H](Cc2ccccc2)NC1=O: PAMPA -5.33 (log10 cm/s)
- CC(C)C[C@H]1C(=O)N[C@@H](Cc2ccccc2)CC(=O)N2CCC[C@H]2C(=O)N(Cc2ccccc2)CC(=O)N[C@@H](Cc2ccccc2)C(=O)N2CCC[C@@H]2C(=O)N(C)[C@H](C)C(=O)N1C: PAMPA -6.26 (log10 cm/s)
- CC(C)C[C@@H]1C(=O)N[C@@H](Cc2ccccc2)C(=O)N2CCC[C@@H]2C(=O)N[C@@H](Cc2ccccc2)CC(=O)N(C)[C@@H](CC(C)C)C(=O)N[C@H](CC(C)C)C(=O)N2CCC[C@H]2C(=O)N1C: PAMPA -5.32 (log10 cm/s)
- CC(C)C[C@@H]1C(=O)N[C@@H](Cc2ccccc2)C(=O)N2CCC[C@@H]2C(=O)N(C)[C@H](C)C(=O)N[C@H](CC(C)C)C(=O)N(C)[C@@H](CC(C)C)C(=O)N2CCC[C@@H]2C(=O)N1C: PAMPA -5.30 (log10 cm/s)
- CC(C)C[C@@H]1NC(=O)[C@H]2CCCN2C(=O)[C@H](CC(C)C)NC(=O)CN(Cc2ccccc2)C(=O)[C@H](C)N(C)C(=O)[C@H](Cc2ccccc2)NC1=O: PAMPA -5.22 (log10 cm/s)
- CC(C)C[C@@H]1C(=O)N[C@H](CC(C)C)C(=O)N2CCC[C@@H]2C(=O)N(C)[C@@H](CC(C)C)C(=O)N[C@@H](Cc2ccccc2)C(=O)N[C@@H](Cc2ccccc2)CC(=O)N1C: PAMPA -5.11 (log10 cm/s)
- CCCN1CC(=O)N(C)[C@@H](CC(C)C)C(=O)N[C@@H](CC(C)C)C(=O)N2CCC[C@H]2C(=O)N(C)[C@H](CC(C)C)C(=O)N[C@@H](Cc2ccccc2)C(=O)N2CCC[C@@H]2C1=O: PAMPA -5.17 (log10 cm/s)

Repeated from above, the 2 entries with the highest PAMPA:

| compound | PAMPA (log10 cm/s) |
|---|---|
| CC(C)C[C@@H]1C(=O)N[C@@H](Cc2ccccc2)CC(=O)N2CCC[C@@H]2C(=O)N(C)[C@H](CC(C)C)C(=O)N[C@@H](Cc2ccccc2)C(=O)N2CCC[C@H]2C(=O)N[C@@H](C)C(=O)N1C | -4.96 |
| CC(C)C[C@@H]1C(=O)N[C@@H](Cc2ccccc2)C(=O)N[C@H](C)C(=O)N(C)[C@@H](CC(C)C)C(=O)N(C)[C@@H](CC(C)C)C(=O)N2CCC[C@@H]2C(=O)N1C | -5.01 |

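Lipid, pH, incubation time, direction and concentration are not recorded in the data file. Other peptides of the study may be missing here. Entries at the database's floor value (log10 P of -10) are not listed.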

Data: CycPeptMPDB; original report Townsend et al. 2020, doi:10.26434/chemrxiv.13335941.v1.